Source: patent publication US20240173276A1, “METHODS AND COMPOSITIONS FOR INHIBITING FORMATION OF THE HIV LATENT RESERVOIR” (The University of North Carolina at Chapel Hill, priority 2021, published 2024)

Test system: replication competent HIV (NL4-3 HSA) infected primary CD4 T cells
Details: 500 nM vorinostat with raltegravir and abacavir from 2 dpi, vorinostat removed at 12 dpi; vs DMSO

O=C(CCCCCCC(=O)Nc1ccccc1)NO [vorinostat] was tested, and the “duration of significantly prolonged viral gene expression (HSA+)” value was “at least 17 days after infection”.
